# Binding of CDR-mutated scFvs to a peptide of the spike HR2 region

Source: Li et al. 2023 (doi:10.1038/s41467-023-39022-2), MIT Lincoln Laboratory and A-Alpha Bio; data file from the FLAb repository.

Target peptide (SARS-CoV-2 spike, HR2 region): PDVDLGDISGINAS

The variants keep the light chain, the linker and the frameworks of Ab-14 (scFv order VH, a 15-residue (Gly4Ser)3 linker, VL).
VH: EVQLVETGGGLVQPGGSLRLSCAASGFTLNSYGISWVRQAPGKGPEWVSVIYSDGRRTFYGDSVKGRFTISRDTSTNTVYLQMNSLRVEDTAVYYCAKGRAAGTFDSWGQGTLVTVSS
VL: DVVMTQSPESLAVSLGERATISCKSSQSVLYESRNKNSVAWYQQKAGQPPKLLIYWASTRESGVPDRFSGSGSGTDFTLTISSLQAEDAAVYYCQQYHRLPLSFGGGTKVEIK

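The starting antibody came from a phage panning campaign against this peptide. The variants were designed computationally from a first round of random CDR variants and then made and measured. Their group label is 14H_Rand (Rand: our label for a block that the file lists under HC and that is probably the random mutants of the ten best first-round binders). AlphaSeq pools MATa yeast showing the antibodies with MATalpha yeast showing the peptide. Mating (16 h, 30 °C) was followed by selection of diploids and sequencing of their barcodes. Each replicate has its own calibration line, from reference interactions of the BCL2 family. Mating was done six times.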

Changes read parent residue, position, new residue, counted from the first residue of the VH shown.
Numbers give log10(Kd / nM), so 0 is 1 nM and 3 is 1 µM. Smaller is tighter.
Averages over replicates are reported, and they cover detected replicates only.
"n.d." means that the variant was in the library but no mating with the target was seen in that replicate; the authors take this as a sign of poor binding, and no number exists.
Empty control strains, which show no peptide, gave a signal in 1% of pairings with all heavy chain designs; the median was 2.08 and 95% of these signals were weaker than 0.84. No background was subtracted. For each scFv, signals with the empty controls are counted beside the result, with their mean in brackets.
Of ten entries with the parent sequence, four were seen in most replicates (averages 0.34 to 2.37), three in one and three in none, so single entries are noisy.
In the paper, a design with two or fewer of six values counts as a poor binder.
The range of this assay differs from that of the first round, and the authors advise against merging the two.

changes	log10 Kd, replicates	log10 Kd (nM), mean	empty controls
S31E Y32P D62Q G103V S107G	n.d. n.d. n.d. n.d. n.d. n.d.	n.d.	0 of 18
S31Q S53E D54H R56T G61S A101I T104F	n.d. n.d. n.d. n.d. n.d. n.d.	n.d.	1 of 18 (1.08)
S31E I34D Y60P G103V S107Q	n.d. n.d. n.d. n.d. n.d. n.d.	n.d.	0 of 18
S31E G61T R100A A101F	0.59 0.50 0.09 0.56 0.65 0.63	0.50	0 of 18
N30M S53C G61D R100Q A101L	n.d. n.d. n.d. n.d. n.d. n.d.	n.d.	0 of 18
S31D I34Y F59Q G61I S63R	n.d. n.d. n.d. n.d. n.d. n.d.	n.d.	0 of 18
S53H R56H Y60E G61S A102G D106S	2.92 n.d. n.d. n.d. n.d. n.d.	2.92	0 of 18
N30D Y52E F105A D106L	n.d. n.d. n.d. n.d. n.d. n.d.	n.d.	0 of 18
S31E Y32D R57T S63R G103V S107Q	n.d. n.d. n.d. n.d. n.d. n.d.	n.d.	0 of 18
N30D Y32G S35A I51T R56W A101G F105A D106L	n.d. n.d. n.d. n.d. n.d. n.d.	n.d.	0 of 18
T28D R56G T104W D106N S107V	n.d. n.d. n.d. n.d. n.d. n.d.	n.d.	0 of 18
N30D Y52K A101Y F105A D106Y	n.d. n.d. n.d. n.d. n.d. n.d.	n.d.	0 of 18
F27G T28D G61Q T104W D106N	n.d. 2.02 n.d. n.d. 2.06 n.d.	2.04	0 of 18
T28D I51H R57V F59R T104W D106N	n.d. n.d. n.d. n.d. n.d. n.d.	n.d.	0 of 18
T28D Y52W R56Y G103D T104W D106N	n.d. n.d. n.d. n.d. n.d. n.d.	n.d.	1 of 18 (0.64)
S31E G61T V64I A101F	1.26 0.49 0.52 1.07 1.03 1.22	0.93	1 of 18 (2.12)
G61D G99Y R100Q A101L	n.d. n.d. n.d. n.d. n.d. n.d.	n.d.	1 of 18 (1.81)
T28D D62Q T104W D106N	n.d. n.d. n.d. n.d. n.d. n.d.	n.d.	1 of 18 (2.03)
S31D F59Q G61I A101C D106N	2.12 n.d. n.d. n.d. n.d. n.d.	2.12	0 of 18
S31Q R57E G61S A101S A102W T104F	n.d. n.d. n.d. n.d. n.d. n.d.	n.d.	0 of 18
S31Q G61S D62N T104F	0.87 1.89 0.84 0.94 0.88 0.67	1.01	0 of 18
I51V S53A F105N D106S	n.d. n.d. n.d. n.d. n.d. n.d.	n.d.	0 of 18
S31D Y52G F59V G103L D106I S107R	n.d. n.d. n.d. n.d. n.d. n.d.	n.d.	0 of 18
T28L R57N G61S A102G	n.d. n.d. n.d. n.d. n.d. n.d.	n.d.	0 of 18
S31V F59Q G61I R100I	n.d. n.d. n.d. n.d. n.d. n.d.	n.d.	0 of 18
G26R S31E G61V R100V A101F	n.d. n.d. n.d. n.d. n.d. n.d.	n.d.	0 of 18
S31Q Y52M G61S S63P T104W	n.d. n.d. n.d. n.d. n.d. n.d.	n.d.	1 of 18 (2.18)
N30F S31Q G61S T104F	n.d. 1.53 1.18 1.18 n.d. 0.74	1.16	0 of 18
S53I G61D S63C R100Q A101L	n.d. n.d. n.d. n.d. n.d. n.d.	n.d.	1 of 18 (2.81)
S31E G61T D62P A101F D106F	n.d. n.d. n.d. n.d. n.d. n.d.	n.d.	0 of 18
S31E G61T V64M A101F	n.d. n.d. n.d. n.d. n.d. n.d.	n.d.	0 of 18
S31E Y32V R56E A102W G103V F105I S107Q	n.d. n.d. n.d. n.d. n.d. n.d.	n.d.	0 of 18
N30A G33E G61S A102H	n.d. n.d. n.d. n.d. n.d. n.d.	n.d.	1 of 18 (0.58)
T28D S35P Y52P R57T V64H T104W D106A	n.d. n.d. n.d. n.d. n.d. n.d.	n.d.	1 of 18 (2.62)
S31D S53R G103L D106I	n.d. n.d. n.d. n.d. n.d. n.d.	n.d.	0 of 18
G26E S31D D54A G103L D106I	n.d. n.d. n.d. n.d. n.d. n.d.	n.d.	0 of 18
G26T S31E Y52H R57G G61T A101F	n.d. n.d. n.d. 2.11 n.d. n.d.	2.11	1 of 18 (1.95)
S31Q F59I G61S S63I A102M T104F	n.d. n.d. n.d. n.d. n.d. n.d.	n.d.	0 of 18